# Laboratory results: patent US20030232986A1, “Inhibitors of caspases” (Vertex Pharmaceuticals Incorporated, priority 1998, published 2003)
# Sequences of proteins named here, by UniProt entry; tags and fusion partners are left off. Residues count along the entry.
# UniProt P29466, 120-297 limits assumed: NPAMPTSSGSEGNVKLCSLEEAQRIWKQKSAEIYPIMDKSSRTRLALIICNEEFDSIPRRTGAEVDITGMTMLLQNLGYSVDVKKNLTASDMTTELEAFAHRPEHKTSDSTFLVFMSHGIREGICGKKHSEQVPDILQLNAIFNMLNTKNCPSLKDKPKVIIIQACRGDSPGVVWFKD
# UniProt P29466, 317-404 limits assumed: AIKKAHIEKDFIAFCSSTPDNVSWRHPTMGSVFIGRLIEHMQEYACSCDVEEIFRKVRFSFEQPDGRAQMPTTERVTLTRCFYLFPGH
# Legend:
# Caspase-1 = Caspase-1 (Homo sapiens, UniProt P29466); assay: Caspase-1 enzyme inhibition (Ki); settings: read-out: Caspase-1 Ki; substrate Suc-YVAD-pNA 80 μM, 37° C., pH 7.5
# [1] = tested on: Human whole blood, IL-1β production; assay: Whole blood assay for IL-1β production; settings: read-out: Whole Blood IC50; LPS-stimulated whole blood, IL-1β by ELISA
# Protocol: The whole blood assay is a simple method for measuring the production of IL-1β (or other cytokines) and the activity of potential inhibitors. The complexity of this assay system, with its full complement of lymphoid and inflammatory cell types, spectrum of plasma proteins and red blood cells is an ideal in vitro representation of human in vivo physiologic conditions.
# Set incubator or water bath at 30° C. Aliquot 0.25 ml of blood into 1.5 ml eppendorf tubes. Note: be sure to invert the whole blood sample tubes after every two aliquots. Differences in replicates may result if the cells sediment and are not uniformly suspended. Use of a positive displacement pipette will also minimize differences between replicate aliquots.
# Prepare drug dilutions in sterile pyrogen-free saline by serial dilution. A dilution series which brackets the apparent Ki for a test compound determined in an ICE inhibition assay is generally used for the primary compound screen. For extremely hydrophobic compounds, prepare compound dilutions in fresh plasma obtained from the same blood donor or in PBS-containing 5% DMSO to enhance solubility.
# Add 25 μl test compound dilution or vehicle control and gently mix the sample. Then add 5.0 μl LPS solution (250 ng/ml stocked prepared fresh: 5.0 ng/ml final concentration LPS), and mix again. Incubate the tubes at […] in a water bath for 16-18 hr with occasional mixing. […]
# [2] = tested on: Human Peripheral Blood Mononuclear Cells (PBMC), mature IL-1β; assay: PBMC cell assay: IL-1β assay with human peripheral blood mononuclear cells; settings: read-out: PBMC IC50; LPS-stimulated human PBMC, mature IL-1β in supernatant by ELISA
# Excerpt: IL-1β Assay with a Mixed Population of Human Peripheral Blood Mononuclear Cells (PBMC) or Enriched Adherent Mononuclear Cells
# Processing of pre-IL-1β by ICE can be measured in cell culture using a variety of cell sources. Human PBMC obtained from healthy donors provides a mixed population of lymphocyte subtypes and mononuclear cells that produce a spectrum of interleukins and cytokines in response to many classes of physiological stimulators. Adherent mononuclear cells from PBMC provides an enriched source of normal monocytes for selective studies of cytokine production by activated cells.
# An initial dilution series of test compound in DMSO or ethanol is prepared, with a subsequent dilution into RPMI-10% FBS media (containing 2 mM L-glutamine, 10 mM HEPES, 50 U and 50 ug/ml pen/strep) respectively to yield drugs at 4× the final test concentration containing 0.4% DMSO or 0.4% ethanol. The final concentration of DMSO is 0.1% for all drug dilutions. A concentration titration which brackets the apparent Ki for a test compound determined in an ICE inhibition assay is generally used for the primary compound screen.
# Generally 5-6 compound dilutions are tested and the cellular component of the assay is performed in duplicate, with duplicate ELISA determinations on each cell culture supernatant. […]
Ki (Caspase-1) [nM],IC50 [1] [nM],Compound,IC50 [2] [nM]
< 10,2500 to 7500,C[C@H](NC(=O)c1cccc2ccccc12)C(=O)N1CSC(C)(C)[C@H]1C(=O)N[C@H](C=O)CC(=O)O,500 to 1000
< 10,2500 to 7500,C[C@H](NC(=O)c1nccc2ccccc12)C(=O)N1CSC(C)(C)[C@H]1C(=O)N[C@H](C=O)CC(=O)O,500 to 1000
